Patent US20090099157A1, “TETRAHYDRO-PYRAZOLO-PYRIDINE THIOETHER MODULATORS OF CATHEPSIN S” (priority 2007, published 2009)

By UniProt entry, the sequences of proteins in these tests, tags left out. Residues count along the entry.
UniProt P25774, 115-331: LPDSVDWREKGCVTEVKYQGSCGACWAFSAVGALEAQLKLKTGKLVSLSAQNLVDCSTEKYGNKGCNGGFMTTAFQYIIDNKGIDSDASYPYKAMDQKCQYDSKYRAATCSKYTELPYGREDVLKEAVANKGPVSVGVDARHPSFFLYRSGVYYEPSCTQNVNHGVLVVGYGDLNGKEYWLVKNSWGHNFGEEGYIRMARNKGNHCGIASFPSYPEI

Target: Recombinant human cathepsin S (CatS) (Homo sapiens, UniProt P25774)
Assay: biochemical

Row | IC50 [nM] | Structure (SMILES)
1 | 230 | O=C(Nc1cccs1)N1CCc2c(c(-c3ccc(C(F)(F)F)c(SCCN4CCC(F)CC4)c3)nn2C[C@@H](O)CN2CCCCC2)C1 [Example 626, 3-[3-{[2-(4-Fluoropiperidin-1-yl)ethyl]sulfanyl}-4-(trifluoromethyl)phenyl]-1-[(2S)-2-hydroxy-3-piperidin-1-ylpropyl]-N-2-thienyl-1,4,6,7-tetrahydro-5H-pyrazolo[4,3-c]pyridine-5-carboxamide]
2 | 60 | O=C(CO)N1CCc2c(c(-c3ccc(C(F)(F)F)c(SCCN4CCC(F)(F)C4)c3)nn2CC(O)CN2CCC(Oc3ncccn3)CC2)C1 (stereo not shown) [Example 739, 1-{3-[3-{[2-(3,3-Difluoropyrrolidin-1-yl)ethyl]sulfanyl}-4-(trifluoromethyl)phenyl]-5-(hydroxyacetyl)-4,5,6,7-tetrahydro-1H-pyrazolo[4,3-c]pyridin-1-yl}-3-[4-(pyrimidin-2-yloxy)piperidin-1-yl]propan-2-ol]
3 | 70 | CS(=O)(=O)N1CCc2c(c(-c3ccc(C(F)(F)F)c(SCCN4CCC(O)CC4)c3)nn2CC(O)CN2CCC(N3CCCC3=O)CC2)C1 (stereo not shown) [Example 170, 1-[1-(2-Hydroxy-3-{3-[3-{[2-(4-hydroxypiperidin-1-yl)ethyl]sulfanyl}-4-(trifluoromethyl)phenyl]-5-(methylsulfonyl)-4,5,6,7-tetrahydro-1H-pyrazolo[4,3-c]pyridin-1-yl}propyl)piperidin-4-yl]pyrrolidin-2-one]
4 | 100 | CS(=O)(=O)N1CCc2c(c(-c3ccc(C(F)(F)F)c(SCC(=O)N4CCCC4)c3)nn2CC(O)CN2CCCCC2)C1 (stereo not shown) [Example 255, 1-[5-(Methylsulfonyl)-3-{3-[(2-oxo-2-pyrrolidin-1-ylethyl)sulfanyl]-4-(trifluoromethyl)phenyl}-4,5,6,7-tetrahydro-1H-pyrazolo[4,3-c]pyridin-1-yl]-3-piperidin-1-ylpropan-2-ol]
5 | 90 | CS(=O)(=O)N1CCc2c(c(-c3ccc(C(F)(F)F)c(SCCN4CCCCC4)c3)nn2CC(O)CN2CCC(C(=O)N3CCCC3)CC2)C1 (stereo not shown) [Example 745, 1-[5-(Methylsulfonyl)-3-{3-[(2-piperidin-1-ylethyl)sulfanyl]-4-(trifluoromethyl)phenyl}-4,5,6,7-tetrahydro-1H-pyrazolo[4,3-c]pyridin-1-yl]-3-[4-(pyrrolidin-1-ylcarbonyl)piperidin-1-yl]propan-2-ol]
6 | 40 | CC1CCN(C[C@H](O)Cn2nc(-c3ccc(C(F)(F)F)c(SCCN4CCCC(F)(F)C4)c3)c3c2CCN(S(C)(=O)=O)C3)CC1 [Example 142, (2S)-1-(3-{3-[2-(3,3-Difluoro-piperidin-1-yl)-ethylsulfanyl]-4-trifluoromethyl-phenyl}-5-methanesulfonyl-4,5,6,7-tetrahydro-pyrazolo[4,3-c]pyridin-1-yl)-3-(4-methylpiperidin-1-yl)-propan-2-ol]
7 | 200 | CCCNCCSc1cc(-c2nn(CCCN3CCC(C(=O)N4CCCCC4)CC3)c3c2CN(S(C)(=O)=O)CC3)ccc1C(F)(F)F [Example 152, N-[2-({5-[5-(Methylsulfonyl)-1-{3-[4-(piperidin-1-ylcarbonyl)piperidin-1-yl]propyl}-4,5,6,7-tetrahydro-1H-pyrazolo[4,3-c]pyridin-3-yl]-2-(trifluoromethyl)phenyl}sulfanyl)ethyl]propan-1-amine]
8 | 1300 | CCN1CCCC1CNCCSc1cc(-c2nn(CCCN3CCC(N4CCCC4=O)CC3)c3c2CN(S(C)(=O)=O)CC3)ccc1C(F)(F)F (stereo not shown) [Example 50, 1-(1-{3-[3-(3-{2-[(1-Ethyl-pyrrolidin-2-ylmethyl)-amino]-ethylsulfanyl}-4-trifluoromethyl-phenyl)-5-methanesulfonyl-4,5,6,7-tetrahydro-pyrazolo[4,3-c]pyridin-1-yl]-propyl}-piperidin-4-yl)-pyrrolidin-2-one]
9 | 470 | CS(=O)(=O)N1CCc2c(c(-c3ccc(C(F)(F)F)c(SCCN4CCC(F)CC4)c3)nn2CC(O)CN2CCCCC2CO)C1 (stereo not shown) [Example 571, 1-{3-[3-{[2-(4-Fluoropiperidin-1-yl)ethyl]sulfanyl}-4-(trifluoromethyl)phenyl]-5-(methylsulfonyl)-4,5,6,7-tetrahydro-1H-pyrazolo[4,3-c]pyridin-1-yl}-3-[2-(hydroxymethyl)piperidin-1-yl]propan-2-ol]
10 | 20 | CS(=O)(=O)NCCSc1cc(-c2nn(CC(O)CN3CCN(c4ccccc4C#N)CC3)c3c2CN(S(C)(=O)=O)CC3)ccc1C(F)(F)F (stereo not shown) [Example 800, N-[2-({5-[1-{3-[4-(2-Cyanophenyl)piperazin-1-yl]-2-hydroxypropyl}-5-(methylsulfonyl)-4,5,6,7-tetrahydro-1H-pyrazolo[4,3-c]pyridin-3-yl]-2-(trifluoromethyl)phenyl}sulfanyl)ethyl]methanesulfonamide]
11 | 3860 | NC(=O)C1CCN(CC(O)Cn2nc(-c3ccc(C(F)(F)F)c(SCCN4CCCCC4)c3)c3c2CCNC3)CC1 (stereo not shown) [Example 309, 1-[2-Hydroxy-3-(3-{3-[(2-piperidin-1-ylethyl)sulfanyl]-4-(trifluoromethyl)phenyl}-4,5,6,7-tetrahydro-1H-pyrazolo[4,3-c]pyridin-1-yl)propyl]piperidine-4-carboxamide]
12 | 200 | N#Cc1cccc(C2CCN(C[C@H](O)Cn3nc(-c4ccc(C(F)(F)F)c(SCCN5CCC(F)CC5)c4)c4c3CCNC4)CC2)c1 [Example 536, 3-{1-[(2S)-3-{3-[3-{[2-(4-Fluoropiperidin-1-yl)ethyl]sulfanyl}-4-(trifluoromethyl)phenyl]-4,5,6,7-tetrahydro-1H-pyrazolo[4,3-c]pyridin-1-yl}-2-hydroxypropyl]piperidin-4-yl}benzonitrile]
13 | 110 | CS(=O)(=O)NCCSc1cc(-c2nn(CC(O)CN3CCC(C(=O)N4CCCC4)CC3)c3c2CN(S(C)(=O)=O)CC3)ccc1C(F)(F)F (stereo not shown) [Example 771, N-[2-({5-[1-{2-Hydroxy-3-[4-(pyrrolidin-1-ylcarbonyl)piperidin-1-yl]propyl}-5-(methylsulfonyl)-4,5,6,7-tetrahydro-1H-pyrazolo[4,3-c]pyridin-3-yl]-2-(trifluoromethyl)phenyl}sulfanyl)ethyl]methanesulfonamide]
14 | 1290 | CS(=O)(=O)NC1CCN(CC(O)Cn2nc(-c3ccc(C(F)(F)F)c(SCC(=O)N4CCCC4)c3)c3c2CCNC3)CC1 (stereo not shown) [Example 379, N-{1-[2-Hydroxy-3-(3-{3-[(2-oxo-2-pyrrolidin-1-ylethyl)sulfanyl]-4-(trifluoromethyl)phenyl}-4,5,6,7-tetrahydro-1H-pyrazolo[4,3-c]pyridin-1-yl)propyl]piperidin-4-yl}methanesulfonamide]
15 | 690 | CCC(=O)N1CCc2c(c(-c3ccc(C(F)(F)F)c(SCCN4CCC(F)CC4)c3)nn2C[C@@H](O)CN2CCCCC2)C1 [Example 337, (2S)-1-{3-[3-{[2-(4-Fluoropiperidin-1-yl)ethyl]sulfanyl}-4-(trifluoromethyl)phenyl]-5-propanoyl-4,5,6,7-tetrahydro-1H-pyrazolo[4,3-c]pyridin-1-yl}-3-piperidin-1-ylpropan-2-ol]
16 | 1900 | CCOC(=O)NC1CCN(CC(O)Cn2nc(-c3ccc(C(F)(F)F)c(SCCN4CCCCC4)c3)c3c2CCNC3)CC1 (stereo not shown) [Example 365, Ethyl {1-[2-hydroxy-3-(3-{3-[(2-piperidin-1-ylethyl)sulfanyl]-4-(trifluoromethyl)phenyl}-4,5,6,7-tetrahydro-1H-pyrazolo[4,3-c]pyridin-1-yl)propyl]piperidin-4-yl}carbamate]
17 | 370 | CC(C)(C)C1CCN(CCSc2cc(-c3nn(C[C@@H](O)CN4CCCCC4)c4c3CN(S(C)(=O)=O)CC4)ccc2C(F)(F)F)CC1 [Example 219, (2S)-1-{3-[3-({2-[4-(1,1-Dimethylethyl)piperidin-1-yl]ethyl}sulfanyl)-4-(trifluoromethyl)phenyl]-5-(methylsulfonyl)-4,5,6,7-tetrahydro-1H-pyrazolo[4,3-c]pyridin-1-yl}-3-piperidin-1-ylpropan-2-ol]
18 | 35 | NC(=O)C(=O)N1CCc2c(c(-c3ccc(C(F)(F)F)c(SCCN4CCCC4)c3)nn2C[C@@H](O)CN2CCC(N3C[C@H](O)CC3=O)CC2)C1 [Example 663, 2-(1-[(2S)-2-Hydroxy-3-{4-[(4R)-4-hydroxy-2-oxopyrrolidin-1-yl]piperidin-1-yl}propyl]-3-{3-[(2-pyrrolidin-1-ylethyl)sulfanyl]-4-(trifluoromethyl)phenyl}-1,4,6,7-tetrahydro-5H-pyrazolo[4,3-c]pyridin-5-yl)-2-oxoacetamide]
19 | 630 | CCOC(=O)NC1CCN(CCSc2cc(-c3nn(CCCN4CCC(N5CCCC5=O)CC4)c4c3CN(S(C)(=O)=O)CC4)ccc2C(F)(F)F)CC1 [Example 874, Ethyl {1-[2-({5-[5-(methylsulfonyl)-1-{3-[4-(2-oxopyrrolidin-1-yl)piperidin-1-yl]propyl}-4,5,6,7-tetrahydro-1H-pyrazolo[4,3-c]pyridin-3-yl]-2-(trifluoromethyl)phenyl}sulfanyl)ethyl]piperidin-4-yl}carbamate]
20 | 470 | CS(=O)(=O)N1CCc2c(c(-c3ccc(C(F)(F)F)c(SCC(=O)N4CCOCC4)c3)nn2CCCN2CCCCC2)C1 [Example 253, 5-(Methylsulfonyl)-3-{3-[(2-morpholin-4-yl-2-oxoethyl)sulfanyl]-4-(trifluoromethyl)phenyl}-1-(3-piperidin-1-ylpropyl)-4,5,6,7-tetrahydro-1H-pyrazolo[4,3-c]pyridine]
21 | 10 | O=C(CO)N1CCc2c(c(-c3ccc(C(F)(F)F)c(SCCN4CCC(F)CC4)c3)nn2CC(O)CN2CCC(c3ccccn3)CC2)C1 (stereo not shown) [Example 276, 1-{3-[3-{[2-(4-Fluoropiperidin-1-yl)ethyl]sulfanyl}-4-(trifluoromethyl)phenyl]-5-(hydroxyacetyl)-4,5,6,7-tetrahydro-1H-pyrazolo[4,3-c]pyridin-1-yl}-3-(4-pyridin-2-ylpiperidin-1-yl)propan-2-ol]
22 | 35 | CS(=O)(=O)N1CCc2c(c(-c3ccc(C(F)(F)F)c(SCCN4CCC(F)(F)C4)c3)nn2CC(O)CN2CCC(N3CCCC3=O)CC2)C1 (stereo not shown) [Example 769, 1-[1-(3-{3-[3-{[2-(3,3-Difluoropyrrolidin-1-yl)ethyl]sulfanyl}-4-(trifluoromethyl)phenyl]-5-(methylsulfonyl)-4,5,6,7-tetrahydro-1H-pyrazolo[4,3-c]pyridin-1-yl}-2-hydroxypropyl)piperidin-4-yl]pyrrolidin-2-one]
